Results taken from ChEMBL document CHEMBL3994631, “Design, synthesis, structure-activity relationship and mechanism of action studies of a series of 4-chloro-1-phthalazinyl hydrazones as a potent agent against Leishmania braziliensis” (Eur J Med Chem, 2017).

Experiment: Selectivity index, ratio of LC50 for mouse BMDM to EC50 for Leishmania braziliensis MHOM/CO/87/UA301 promastigote forms

SMILES	Selectivity Index
CCCCCCCCCCCCCCCCOP(=O)([O-])OCC[N+](C)(C)C [MILTEFOSINE]	5
O=[N+]([O-])c1ccc(C=NNc2nnc(Cl)c3ccccc23)o1	117
O=[N+]([O-])c1ccc(C=NNc2nnc(Cl)c3ccccc23)s1	< 3
